The source of these data is ChEMBL document CHEMBL1134439, “Radioiodinated styrylbenzenes and thioflavins as probes for amyloid aggregates” (J Med Chem, 2001).

Sequences of proteins named here, by UniProt entry; tags and fusion partners are left off.
UniProt P05067, whole entry: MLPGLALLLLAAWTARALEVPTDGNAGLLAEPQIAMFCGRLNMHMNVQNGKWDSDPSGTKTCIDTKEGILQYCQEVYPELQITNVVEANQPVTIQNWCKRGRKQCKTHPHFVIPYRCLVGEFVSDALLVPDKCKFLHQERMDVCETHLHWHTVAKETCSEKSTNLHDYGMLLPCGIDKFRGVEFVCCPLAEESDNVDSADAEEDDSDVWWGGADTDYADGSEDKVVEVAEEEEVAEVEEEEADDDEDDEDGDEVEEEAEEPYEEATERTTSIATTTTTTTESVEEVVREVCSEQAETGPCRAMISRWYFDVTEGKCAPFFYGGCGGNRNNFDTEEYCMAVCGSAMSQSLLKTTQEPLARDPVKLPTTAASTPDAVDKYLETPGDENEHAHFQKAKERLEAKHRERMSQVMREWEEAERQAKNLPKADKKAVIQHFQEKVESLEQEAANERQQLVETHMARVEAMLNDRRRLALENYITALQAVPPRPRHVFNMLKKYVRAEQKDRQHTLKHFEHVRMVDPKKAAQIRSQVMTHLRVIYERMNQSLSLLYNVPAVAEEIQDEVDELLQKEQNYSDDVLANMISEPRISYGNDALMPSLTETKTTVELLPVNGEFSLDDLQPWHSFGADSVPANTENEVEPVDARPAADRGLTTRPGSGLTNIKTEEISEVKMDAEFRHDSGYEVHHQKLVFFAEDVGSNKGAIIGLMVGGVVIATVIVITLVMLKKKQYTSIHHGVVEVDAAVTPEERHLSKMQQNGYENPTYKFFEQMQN

One may read the Ki as the equilibrium dissociation constant of an inhibitor or competing ligand from its target. Read a high Ki as weaker binding.

Assay [1] deals with T1, Amyloid-beta precursor protein (Homo sapiens, UniProt P05067). In words: Inhibition constant for amyloid beta compared to [125I]TZDM. In a few lines:
(§1)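 Aβ(1-40) or Aβ(1-42) aggregated at 0.5 or 0.25 mg/mL respectively in pH 7.4 buffer (10 mM sodium phosphate, 1 mM EDTA), 37 °C, 36-42 h with shaking. Competition against ¹²⁵I radioligand with fibrils 10-50 nM (final), 10% EtOH, 1 mL. Incubation 3 h room temperature. Bound ligand collected by GF/B filtration, γ-counted. Ki by nonlinear regression. Mean ± SEM, three experiments in duplicate.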

Assay [2] has as its target T1, Amyloid-beta precursor protein. Briefly: Inhibition constant for aggregates of amyloid beta compared to [125I]IMSB. In a few lines:
as §1

The structures appear in SMILES notation. Several values for one entry are separate records, joined by “and”; a condition that tells them apart may be missing. Equal entries are not always repeated.

In the case of `Cc1ccc2c(c1)sc(-c1ccc(N(C)C)cc1)[n+]2C`, the Ki in assay [1] is 116 nM and 294 nM; in assay [2], above 9000 nM.
